Assay: Membrane permeability (Papp) across Caco-2 cell monolayers
Format: in vitro ADME
Details: human

Cc1nc2n(c(=O)c1CCN1CCC(c3noc4cc(F)ccc34)CC1)CCCC2 [Risperidone, risperidone, reference compound]
efflux ratio: 0.52
